The numbers were not newly measured in US20160008277A1, “CO-PACKAGED DRUG PRODUCTS” (Lightlake Therapeutics Inc., priority 2014, published 2016), which cites them from elsewhere.

For data set [1] the following is noted: neonatal study; cited from earlier work.
For data set [2] the following is noted: adults; cited from earlier work.

As for `C=CCN1CC[C@]23c4c5ccc(O)c4O[C@H]2C(=O)CC[C@@]3(O)[C@H]1C5.Cl` [naloxone hydrochloride, 17-allyl-4,5a-epoxy-3,14-dihydroxymorphinan-6-one hydrochloride], the mean plasma half-life in data set [1] is 3.1 ± 0.5 h. The “serum half-life (mean)” value in data set [2] is 1.07 ± 0.2 h.
